Tests used:
Assay type in all cases: biochemical
CK1 = assay: protein kinase catalytic activity assay, CK1; conditions: read-out: IC50 towards CK1
CLK1 = CLK1 (Mus musculus, UniProt P22518); assay: protein kinase catalytic activity assay, CLK1; conditions: read-out: IC50 towards CLK1
CDK2/A = CDK2/A (Homo sapiens, UniProt P24941); assay: protein kinase catalytic activity assay, CDK2/cyclin A; conditions: read-out: IC50 towards CDK2/A
CDK9/T = CDK9/T (Homo sapiens, UniProt P50750); assay: protein kinase catalytic activity assay, CDK9/cyclin T; conditions: read-out: IC50 towards CDK9/T
DYRK1A = DYRK1A (Rattus norvegicus, UniProt Q63470); assay: protein kinase catalytic activity assay, DYRK1A; conditions: read-out: IC50 towards DYRK1A
GSK3 = GSK3 (Homo sapiens, UniProt P49841); assay: protein kinase catalytic activity assay, GSK3; conditions: read-out: IC50 towards GSK3

Protein sequences, listed by entry. Tags and fused reporters are not part of them.
UniProt P22518, whole entry: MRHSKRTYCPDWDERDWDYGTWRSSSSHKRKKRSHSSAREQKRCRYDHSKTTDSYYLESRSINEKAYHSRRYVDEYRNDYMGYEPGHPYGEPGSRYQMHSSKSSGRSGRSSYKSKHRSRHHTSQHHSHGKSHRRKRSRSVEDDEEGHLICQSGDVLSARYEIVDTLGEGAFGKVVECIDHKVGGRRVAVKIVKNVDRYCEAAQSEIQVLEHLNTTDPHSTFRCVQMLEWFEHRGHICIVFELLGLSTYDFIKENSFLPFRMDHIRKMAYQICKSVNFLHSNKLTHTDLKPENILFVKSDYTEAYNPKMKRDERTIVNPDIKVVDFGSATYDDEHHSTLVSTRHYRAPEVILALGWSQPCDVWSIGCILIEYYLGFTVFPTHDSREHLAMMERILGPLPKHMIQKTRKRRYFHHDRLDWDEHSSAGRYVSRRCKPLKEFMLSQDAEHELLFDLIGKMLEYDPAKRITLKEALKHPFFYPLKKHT
UniProt P50750, whole entry: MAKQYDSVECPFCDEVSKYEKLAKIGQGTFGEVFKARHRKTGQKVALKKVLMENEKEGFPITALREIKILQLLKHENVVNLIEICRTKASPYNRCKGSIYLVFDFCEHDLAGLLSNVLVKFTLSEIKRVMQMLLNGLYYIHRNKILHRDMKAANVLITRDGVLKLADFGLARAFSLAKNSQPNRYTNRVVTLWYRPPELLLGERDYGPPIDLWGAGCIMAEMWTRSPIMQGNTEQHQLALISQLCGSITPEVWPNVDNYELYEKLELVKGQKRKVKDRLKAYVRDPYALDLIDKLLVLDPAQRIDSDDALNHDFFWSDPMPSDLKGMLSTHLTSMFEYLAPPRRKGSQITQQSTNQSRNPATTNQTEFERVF
UniProt P49841, whole entry: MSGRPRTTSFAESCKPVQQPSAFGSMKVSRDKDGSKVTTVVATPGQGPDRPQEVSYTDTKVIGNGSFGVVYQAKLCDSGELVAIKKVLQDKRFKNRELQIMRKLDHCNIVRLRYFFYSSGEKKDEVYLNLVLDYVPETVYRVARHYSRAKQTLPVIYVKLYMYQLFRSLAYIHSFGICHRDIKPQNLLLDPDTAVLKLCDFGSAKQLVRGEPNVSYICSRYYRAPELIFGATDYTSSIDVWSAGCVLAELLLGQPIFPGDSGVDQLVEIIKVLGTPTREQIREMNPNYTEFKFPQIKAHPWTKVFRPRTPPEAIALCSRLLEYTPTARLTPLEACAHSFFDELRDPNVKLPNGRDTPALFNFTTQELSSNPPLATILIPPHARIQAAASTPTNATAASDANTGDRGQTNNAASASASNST
UniProt O60563, whole entry partner: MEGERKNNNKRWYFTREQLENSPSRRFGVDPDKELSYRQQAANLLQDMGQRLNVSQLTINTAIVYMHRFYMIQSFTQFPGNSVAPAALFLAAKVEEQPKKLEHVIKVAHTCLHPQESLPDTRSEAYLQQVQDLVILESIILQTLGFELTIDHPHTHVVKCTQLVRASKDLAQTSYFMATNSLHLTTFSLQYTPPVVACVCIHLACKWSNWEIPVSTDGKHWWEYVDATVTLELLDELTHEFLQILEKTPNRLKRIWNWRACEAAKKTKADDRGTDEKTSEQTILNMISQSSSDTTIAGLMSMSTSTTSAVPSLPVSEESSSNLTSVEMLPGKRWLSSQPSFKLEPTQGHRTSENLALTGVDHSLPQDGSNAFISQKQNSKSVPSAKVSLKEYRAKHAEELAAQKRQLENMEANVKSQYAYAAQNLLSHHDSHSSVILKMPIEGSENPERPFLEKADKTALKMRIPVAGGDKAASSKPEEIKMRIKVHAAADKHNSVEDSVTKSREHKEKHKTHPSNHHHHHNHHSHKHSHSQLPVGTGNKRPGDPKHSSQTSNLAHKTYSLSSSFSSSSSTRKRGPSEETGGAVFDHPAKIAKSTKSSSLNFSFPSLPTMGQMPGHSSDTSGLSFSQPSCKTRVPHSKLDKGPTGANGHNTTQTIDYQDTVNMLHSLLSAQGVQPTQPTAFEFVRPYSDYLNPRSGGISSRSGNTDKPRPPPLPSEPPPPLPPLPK

`CC[C@H](CO)Nc1nc(NCc2cccc(C(F)(F)F)c2)c2ncn(C(C)C)c2n1` was tested, and the IC50 (CK1) was 470 nM, the IC50 (CLK1) was 1500 nM and the IC50 (CDK2/A) was 110 nM. For the same molecule, the IC50 (CDK9/T) was 433 nM, the IC50 (DYRK1A) was 2000 nM and the IC50 (GSK3) was greater than 10000 nM.

Reference: article PMC6491434 (Scientific Reports, 2019)
